According to ChEMBL document CHEMBL1136157, “Synthesis of 3a,4-dihydro-3H-[1]benzopyrano[4,3-c]isoxazoles, displaying combined 5-HT uptake inhibiting and alpha(2)-adrenoceptor antagonistic activities: a novel series of potential antidepressants” (Bioorg Med Chem Lett, 2003):

Molecular target: Sodium-dependent serotonin transporter (Homo sapiens) (UniProt P31645)
Experiment: In vitro binding affinity towards human serotonin transporter

SMILES | Ki [nM]
COc1cc2c(cc1OC)C1=NOC(CN3CCN(Cc4ccc5ccccc5c4)CC3)C1CO2 (stereo not drawn) | 1.7
COc1cc2c(cc1OC)C1=NO[C@@H](CN3CCN(Cc4ccc5ccccc5c4)CC3)[C@@H]1CO2 (stereo in doubt; (+)15h) | 1.7
COc1cc2c(cc1OC)C1=NO[C@@H](CN3CCN(Cc4ccc5ccccc5c4)CC3)[C@@H]1CO2 (stereo in doubt; (-)15h) | 1.3
